For this data set the following is noted: mean (SD).

Where two headings read alike, the source gives them in different places.

Take insulin: the “mean serum insulin levels” value was 11.9 ng/mL (male Ad-lib mice, first day of refeeding, 60 min after IP insulin (mean dose 1.9 U/kg)); 11.0 ng/mL (male Ad-lib mice, fourth day of refeeding, 60 min after IP insulin (mean dose 2.3 U/kg)); 10.1 ng/mL (male Ad-lib mice, second day of refeeding, 60 min after IP insulin (mean dose 2.0 U/kg)); 5.9 ng/mL (male CR mice, first day of refeeding, 60 min after IP insulin (mean dose 1.6 U/kg)); 8.7 ng/mL (male CR mice, fourth day of refeeding, 60 min after IP insulin (mean dose 2.0 U/kg)); 6.6 ng/mL (male CR mice, second day of refeeding, 60 min after IP insulin (mean dose 1.6 U/kg)).

(Values after patent publication US20220288169A1, “COMPOSITIONS AND METHODS FOR THE TREATMENT AND PREVENTION OF HYPOGLYCEMIC COMPLICATIONS” (The Board of Supervisors of Louisiana State University and …, priority 2019, published 2022).)
